Results on one substance are retold here after patent publication US20250049869A1, “USE OF AURICULARIA AURICULA TOTAL POLYSACCHARIDE OR MONOMERIC POLYSACCHARIDE IN PREPARATION OF PD-L1 INHIBITOR” (priority 2023, published 2025).

The chains behind the UniProt entries cited, without tags or fusion partners. Residues count along the entry.
UniProt Q9NZQ7, 19-290, species assumed: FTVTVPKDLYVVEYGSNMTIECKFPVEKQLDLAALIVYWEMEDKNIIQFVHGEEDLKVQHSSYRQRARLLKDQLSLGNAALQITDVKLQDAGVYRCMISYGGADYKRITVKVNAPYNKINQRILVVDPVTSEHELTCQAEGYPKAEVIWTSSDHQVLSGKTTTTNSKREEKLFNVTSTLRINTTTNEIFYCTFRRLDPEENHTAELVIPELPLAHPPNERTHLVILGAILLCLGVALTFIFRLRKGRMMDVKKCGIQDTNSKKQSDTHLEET

The assay deals with PD-L1 protein (Homo sapiens, UniProt Q9NZQ7). Kind of assay: SPR affinity analysis with PD-L1 protein (Biacore 8K, CM5 chip). It counts as binding. The following applies: PD-L1 coupled to CM5 chip, PBS buffer, read-out: dissociation constant (KD) with PD-L1. From the text: Biacore 8K high-throughput molecular interaction analysis system, CM5 chip, and phosphate buffered saline (PBS) buffer as the mobile phase of the instrument were used in the whole process of the surface plasmon resonance experiment. The PD-L1 was coupled to the activated CM5 chip using an amino coupling kit. […] The ME-2 polysaccharide solution with different concentrations was passed through the coupling channel and the blank channel at a certain velocity by using the running buffer. After 60 s of dissociation, the chip was regenerated with 10 mM glycine-HCl (pH2.0) and 3 M NaCl at a flow rate of […] for 30 s. Biacore Evaluation 3.1 software and GraphPad Prism 8.0 software were used to analyze the data and obtain the response curve.
The regeneration curve decreased obviously, and it had the characteristics of fast bonding and fast dissociation.
In general terms: In SPR one partner is held on a chip, and binding of the other changes the refractive index at the surface.

The Kd is the equilibrium constant for the complex coming apart. Consider “PD-1: programmed cell death protein 1, natural binding partner of PD-L1, measured by SPR as comparison”, for which the Kd came to 533 nM.
